Experiment: Dissociation constant of the compound

In order of rising pKa:
1. CCN(CC)CCS/C(=N\O)C(=O)c1ccc([N+](=O)[O-])cc1.Cl  7.14
2. CCN(CC)CCS/C(=N\O)C(C)=O.Cl  7.4
3. CCN(CC)CCS/C(=N\O)C(=O)c1ccccc1.Cl  7.6
4. CCN(CC)CCS/C(=N\O)C(=O)c1ccc(OC)cc1.Cl  7.82
5. CC[N+](C)(CC)CCS/C(=N\O)C(=O)c1ccc(OC)cc1.[I-]  7.82
6. COc1ccc(C(=O)/C(=N/O)SCCN(C)C)cc1.Cl  8
7. COc1ccc(C(=O)/C(=N/O)SCCN(C(C)C)C(C)C)cc1.Cl  8.01
8. COc1ccc(C(=O)/C(=N/O)SCCCN(C)C)cc1.O=C(O)C(=O)O  8.42
9. CCN(CC)CCS/C(=N\O)C(=O)c1ccc(Br)cc1.Cl  9.28

Reference: ChEMBL document CHEMBL1121722, “Nonquaternary cholinesterase reactivators. Dialkylaminoalkyl thioesters of alpha-ketothiohydroximic acids as reactivators of diisopropyl phosphorofluoridate inhibited acetylcholinesterase” (1981)
